In one test the target is Beta Lactamase (Pseudomonas aeruginosa, UniProt Q932Y6). Briefly: beta-lactamase reporter inhibitor potency, dose response, artefact control for TLR9-MyD88 binding inhibitor project, BLA reporter cells, FRET fluorescence (AID 588341).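 Note: cell based assay in CHO-K1 cells stably expressing beta-lactamase.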 It counts as cell-based.
The target of test [1] is T1, E3 ubiquitin-protein ligase XIAP (Homo sapiens, UniProt P98170). Description: SAR analysis of Antagonists of XIAP-Bir3 domain of IAP-family anti-apoptotic proteins. [Related pubchem assays (depositor defined):AID1018, AID1449, AID1513, AID1514, AID1638].
Test [2] deals with T1, E3 ubiquitin-protein ligase XIAP. Description: SAR analysis of Antagonists of IAP-family anti-apoptotic proteins. [Related pubchem assays (depositor defined):AID1018, AID1449, AID1513, AID1514, AID1638].
Test [3] deals with G-protein coupled receptor 55 (Homo sapiens, UniProt Q9Y2T6). Description: GPR55 antagonists blocking LPI-driven arrestin recruitment, primary screen, imaging, U2OS, beta-arrestin-GFP, LPI agonist (AID 2013).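 Note: antagonist potency measured as reduced agonist-driven arrestin aggregation.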 The class given is functional. (Arrestin recruitment assays detect the binding of arrestin to an activated receptor.)
Test [4] is described as follows: Counterscreen for AddAB inhibitors: absorbance-based bacterial cell-based high throughput dose response assay for inhibitors of bacterial viability. [Related pubchem assays (depositor defined):AID435030, AID449728, AID449731, AID488942, AID488955, AID488956]. The class given is functional. (In general: Counterscreens check selectivity or assay interference.)

By UniProt entry, the sequences of proteins in these tests, tags left out. Where a name states a change or a piece, a line headed by the entry shows the natural chain unless it says otherwise.
UniProt Q932Y6, whole entry: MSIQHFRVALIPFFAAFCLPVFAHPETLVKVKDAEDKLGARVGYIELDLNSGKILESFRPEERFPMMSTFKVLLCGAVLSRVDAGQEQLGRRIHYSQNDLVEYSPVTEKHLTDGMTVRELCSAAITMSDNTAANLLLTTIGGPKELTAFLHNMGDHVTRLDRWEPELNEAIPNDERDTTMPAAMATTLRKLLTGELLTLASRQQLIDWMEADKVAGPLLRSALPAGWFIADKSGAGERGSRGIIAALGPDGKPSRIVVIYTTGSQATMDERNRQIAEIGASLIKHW
UniProt P98170, whole entry: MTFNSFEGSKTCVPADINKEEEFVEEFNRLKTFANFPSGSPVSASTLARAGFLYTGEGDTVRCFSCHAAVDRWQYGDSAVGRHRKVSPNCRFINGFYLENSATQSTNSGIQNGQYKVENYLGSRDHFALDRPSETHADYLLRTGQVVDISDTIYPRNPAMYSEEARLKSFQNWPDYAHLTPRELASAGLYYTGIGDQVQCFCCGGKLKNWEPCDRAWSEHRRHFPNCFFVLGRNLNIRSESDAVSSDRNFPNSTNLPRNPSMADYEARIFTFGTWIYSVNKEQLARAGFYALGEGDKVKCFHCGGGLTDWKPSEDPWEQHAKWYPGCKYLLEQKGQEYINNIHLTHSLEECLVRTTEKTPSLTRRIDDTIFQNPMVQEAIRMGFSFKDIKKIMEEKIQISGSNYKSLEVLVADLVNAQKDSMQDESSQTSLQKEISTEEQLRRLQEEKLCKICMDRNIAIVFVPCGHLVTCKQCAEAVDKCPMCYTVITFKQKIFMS
UniProt Q9Y2T6: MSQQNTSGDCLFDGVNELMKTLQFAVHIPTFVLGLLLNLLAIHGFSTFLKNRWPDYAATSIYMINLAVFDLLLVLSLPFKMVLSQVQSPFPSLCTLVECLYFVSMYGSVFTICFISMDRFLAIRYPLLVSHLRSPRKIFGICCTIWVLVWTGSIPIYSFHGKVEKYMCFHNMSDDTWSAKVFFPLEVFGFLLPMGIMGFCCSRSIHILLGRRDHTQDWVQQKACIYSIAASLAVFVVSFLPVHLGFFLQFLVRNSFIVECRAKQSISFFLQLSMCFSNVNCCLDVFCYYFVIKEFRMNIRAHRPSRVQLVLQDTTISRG

“And” between values parts separate entries of the source, which are not always exact repeats. Equal entries are not always repeated. The source made the active and inactive calls.

In general, IC50 refers to the concentration that inhibits the measured activity by half. On to `CCCCNC(=O)COC(=O)c1c2c(nc3ccccc13)/C(=C/c1cccs1)CC2`, for which the IC50 at Beta Lactamase was active: 3.32 µM.

Turning to `CN[C@@H](C)C(=O)N[C@@H](C(=O)N1CCC[C@H]1C(=O)N[C@@H]1CCCc2ccccc21)C(C)C`, the IC50 in test [1] and in test [2] was inactive: > 100 µM throughout.

In the case of `CN[C@H]1C[C@H]2O[C@@](C)([C@H]1OC)n1c3ccccc3c3c4c(c5c6ccccc6n2c5c31)C(=O)NC4`, the IC50 in test [3] is active: 3.18 µM.

With `CCc1cn([C@H]2C[C@H](O)[C@@H](CO)O2)c(=O)[nH]c1=O` [EDOXUDINE], in test [4], the IC50 is inactive: 18.5 µM and inactive: 14.5 µM.
